# Ab-14 heavy chain CDR variants: yeast mating affinities

The target is the same throughout: PDVDLGDISGINAS, from the HR2 region of SARS-CoV-2 spike.

The variants keep the light chain, the linker and the frameworks of Ab-14 (scFv order VH, a 15-residue (Gly4Ser)3 linker, VL).
VH: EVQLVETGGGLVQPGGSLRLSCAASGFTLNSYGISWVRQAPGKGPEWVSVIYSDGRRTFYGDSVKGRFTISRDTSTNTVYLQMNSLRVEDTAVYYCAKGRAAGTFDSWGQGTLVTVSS
VL: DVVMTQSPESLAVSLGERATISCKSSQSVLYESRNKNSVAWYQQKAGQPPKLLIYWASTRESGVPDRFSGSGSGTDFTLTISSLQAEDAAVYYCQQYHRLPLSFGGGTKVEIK

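The library (AAYL49) carries one to three amino acid substitutions per variant, with no insertions or deletions. AlphaSeq pools MATa yeast showing the antibodies with MATalpha yeast showing the peptide. Binding brings cells together so that they mate, and sequencing counts the barcode pairs among the diploids. Scores were corrected for input abundance and mapped to Kd with protein pairs of known affinity run in the same pool. Mating was done three times.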

Changes read parent residue, position, new residue, counted from the first residue of the VH shown.
Numbers give log10(Kd / nM), so 0 is 1 nM and 3 is 1 µM. Smaller is tighter.
Replicates are averaged; those with no signal do not enter the mean.
An entry "no signal" has no value in the source: the pair was not observed among the diploids in any replicate. This suggests poor binding but is not conclusive.
Entries are sorted by rising average, undetected variants last.
For reference, the parent read 0.65 as the reference entry and 4.11 (one replicate of three) as a member of this library.
Nonspecific signal, from three strains lacking the peptide, appeared in 15% of pairings of library AAYL49, centred on 4.06 (5% of these signals below 2.83); values are not corrected for it. Also given: how often the same scFv was detected with the empty control strains.

changes | log10 Kd (nM), mean | detected | empty controls
F27E+T28W+F59A | 0.43 | 3/3 | 1/9
G61S+V64T+G103D | 0.45 | 3/3 | 1/9
A101F+A102S+F105I | 0.65 | 3/3 | 1/9
S31N+K65I | 1.51 | 3/3 | 0/9
G26K+F27L | 1.62 | 3/3 | 1/9
F27Y+G33F | 1.66 | 3/3 | 2/9
G26P+S31M+S107Q | 2.05 | 3/3 | 0/9
F59D+G61S+T104C | 2.25 | 3/3 | 3/9
V50H+A102Y | 2.49 | 1/3 | 1/9
T104S+D106Q | 3.31 | 2/3 | 0/9
S31Q+T58P+A101M | 3.33 | 2/3 | 4/9
S31L+G33M+V64I | 3.54 | 2/3 | 3/9
G61I+T104P | 3.55 | 2/3 | 1/9
I51V+F105Q | 3.64 | 3/3 | 0/9
S31T+S107P | 3.66 | 1/3 | 3/9
I34T+R56G+F105P | 3.77 | 2/3 | 3/9
T28P+G55M+G99V | 3.79 | 1/3 | 0/9
V64F+K65G | 3.96 | 1/3 | 4/9
V50R+S53G+G55S | 3.97 | 2/3 | 3/9
S53C+Y60G+T104S | 3.99 | 1/3 | 1/9
F27D+D62V+S63T | 4.08 | 1/3 | 0/9
T28W+S63C+K65I | 4.12 | 1/3 | 1/9
S35E+F59H+D62N | 4.26 | 2/3 | 0/9
T28L+L29Y+R57V | 4.33 | 1/3 | 2/9
L29Q+G55L+R100N | 4.36 | 1/3 | 2/9
Y32P+G61R+S63T | 4.37 | 1/3 | 2/9
D62H+V64E+T104G | 4.42 | 1/3 | 5/9
S31C+K65W+A101L | 4.48 | 3/3 | 1/9
I34D+F59Y+S63K | 4.49 | 3/3 | 1/9
L29I+S35H+G55K | 4.60 | 1/3 | 4/9
G26R+Y32N+S63H | 4.61 | 3/3 | 5/9
F27H+I34Y+V50N | 4.62 | 1/3 | 2/9
Y32T+Y52C+F105K | 4.75 | 1/3 | 0/9
G33F+D54C+R56Q | 4.76 | 1/3 | 8/9
S53I+V64L+D106M | 4.78 | 1/3 | 1/9
V50W+G55R+R57M | 4.85 | 1/3 | 2/9
R57L+Y60W+G103M | 4.89 | 2/3 | 1/9
L29F+A101K+G103Q | 4.93 | 1/3 | 1/9
I51L+G103W+T104H | 4.96 | 1/3 | 3/9
G33C+T58A+D62Y | 5.12 | 3/3 | 5/9
N30Y+D54W | 5.16 | 2/3 | 3/9
L29A+I34T+S53M | 5.34 | 2/3 | 4/9
Y52S+G99H+G103Q | 5.37 | 3/3 | 4/9
F27K+V50H+R100P | 5.61 | 1/3 | 1/9
I51C+F59L+A101S | 5.74 | 1/3 | 3/9
G55P+S63F+A102T | 6.24 | 1/3 | 5/9
Y52F+D54N+R100S | no signal | 0/3 | 0/9
Y32G+S35A+S63D | no signal | 0/3 | 0/9
S53I+G55A+G61K | no signal | 0/3 | 0/9
S31L+I34Y+D106L | no signal | 0/3 | 0/9
D62K+T104Q+S107F | no signal | 0/3 | 1/9
D54C+Y60S+F105C | no signal | 0/3 | 1/9
G26M+T58Q+G61Q | no signal | 0/3 | 0/9
S31L+G55N+R100Y | no signal | 0/3 | 0/9
I34F+R57K+G99E | no signal | 0/3 | 0/9
S31I+D62H+G99Q | no signal | 0/3 | 1/9
Y32F+F59E+A101C | no signal | 0/3 | 0/9
N30R+I34L+F59Y | no signal | 0/3 | 0/9
G55C+F59S+K65P | no signal | 0/3 | 0/9
N30S+S53H+S63Q | no signal | 0/3 | 0/9
I51C+R57F | no signal | 0/3 | 0/9
F59H+G61F | no signal | 0/3 | 1/9
D54K+G99M+A101N | no signal | 0/3 | 0/9
G26K+F105T | no signal | 0/3 | 0/9
S31C+K65D+S107M | no signal | 0/3 | 0/9
N30Q+D54I+V64E | no signal | 0/3 | 0/9
S35C+A102D | no signal | 0/3 | 1/9
S35P+G61V+D106V | no signal | 0/3 | 1/9
N30D+R57K | no signal | 0/3 | 0/9
L29G+A101R+A102L | no signal | 0/3 | 1/9
G33V+R56Y+F105L | no signal | 0/3 | 1/9
Y32T+I34H+G99C | no signal | 0/3 | 0/9
N30L+Y60W+G61E | no signal | 0/3 | 0/9
F27W+V50C+V64T | no signal | 0/3 | 0/9
Y60E+V64G+R100W | no signal | 0/3 | 0/9
I34T+I51V+G55M | no signal | 0/3 | 0/9
I51P+S53W+R57P | no signal | 0/3 | 3/9

Picked from the list: the 8 lowest averages where every replicate gave a value.

changes,"log10 Kd (nM), mean",detected,empty controls
F27E+T28W+F59A,0.43,3/3,1/9
G61S+V64T+G103D,0.45,3/3,1/9
A101F+A102S+F105I,0.65,3/3,1/9
S31N+K65I,1.51,3/3,0/9
G26K+F27L,1.62,3/3,1/9
F27Y+G33F,1.66,3/3,2/9
G26P+S31M+S107Q,2.05,3/3,0/9
F59D+G61S+T104C,2.25,3/3,3/9

The measurements come from Engelhart et al. 2022 (doi:10.1038/s41597-022-01779-4) through the FLAb antibody collection.